From patent US20240280594A1, “MULTIWELL PLATE LIPOPHILICITY ASSAY” (Hoffmann-La Roche Inc., priority 2021, published 2024)

Test: CAMDIS Filter Bottom Plate (CAMDIS FBP) octanol/buffer log D
Conditions: pH 7.4

Substance: Progesterone
- CAMDIS FBP LogD: 3.62
